{"sequences": {"note": "Chains of the proteins cited; added tags and fusions are not shown.", "UniProt Q60492, whole entry": "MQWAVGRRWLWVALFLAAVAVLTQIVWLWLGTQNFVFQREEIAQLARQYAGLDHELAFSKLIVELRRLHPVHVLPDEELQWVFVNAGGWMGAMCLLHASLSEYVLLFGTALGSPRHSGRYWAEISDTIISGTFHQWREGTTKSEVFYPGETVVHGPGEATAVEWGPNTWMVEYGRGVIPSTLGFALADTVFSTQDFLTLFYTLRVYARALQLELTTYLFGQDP", "UniProt Q9R0C9, whole entry": "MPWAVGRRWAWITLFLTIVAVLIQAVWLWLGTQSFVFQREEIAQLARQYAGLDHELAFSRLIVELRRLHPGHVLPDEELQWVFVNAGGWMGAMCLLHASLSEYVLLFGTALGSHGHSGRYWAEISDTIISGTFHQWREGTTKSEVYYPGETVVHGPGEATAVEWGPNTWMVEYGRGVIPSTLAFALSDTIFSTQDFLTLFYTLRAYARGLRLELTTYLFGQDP"}, "source": "patent US8658131B2", "about": "“Compounds comprising 4-benzoylpiperidine as a sigma-1-selective ligand” (Washington University, priority 2010, dated 2014)", "key": {"[1]": {"target": "T1, σ1 receptor (Cavia porcellus, UniProt Q60492)", "T1 construct": "using guinea pig brain membrane homogenates; from tissue; host or cells: guinea pig brain membrane homogenates", "assay": "σ1 receptor binding assay, (+)-[3H]pentazocine, guinea pig brain membranes", "conditions": "Table 4, Ki values of VAChT specific compounds; tissue not given; read-out: Sigma-1 σ1"}, "[2]": {"target": "T2, σ1 receptors (Rattus norvegicus, UniProt Q9R0C9)", "T2 construct": "tested in rat brain and in guinea pig membranes, respectively; from tissue; host or cells: rat brain", "assay": "σ1 binding of Table 5 compounds", "description": "Compounds were tested for VAChT binding using highly purified Torpedo synaptic vesicles. The σ1 and σ2 binding affinities were tested in rat brain and in guinea pig membranes, respectively. Structures and Equilibrium binding constants (Ki) are reported in Table 5 and Table 6, respectively. As in previous studies, we define ligand selectivity in terms of a selectivity index which is calculated as Ki (σ1 or σ2)/Ki (VAChT).\nConsequently, we also screened the target compounds for sigma binding to identify selective VAChT ligands from this new structural class of agents."}}, "note": "Counter-ions that a name gives are not always drawn.", "data": [{"smiles": "Cc1ccc(C(=O)C2CCN(C3Cc4c(N)cccc4CC3O)CC2)cn1", "note": "(centres unmarked) [OS-5-70, (1-(8-amino-3-hydroxy-1,2,3,4-tetrahydronaphthalen-2-yl)piperidin-4-yl)(6-methylpyridin-3-yl)methanone oxalate]", "values": [{"measurement": "Ki", "setting": "[1]", "value": "11.4 ± 2.04", "unit": "µM"}, {"measurement": "Ki", "setting": "[2]", "value": "11.4 ± 2.04", "unit": "µM"}]}]}
